Data as given in patent US20260217835A1 (published 2026).

Molecular target: the molecule itself
Experiment: co-expression of full-length heavy chain, light chain and Fc fragment in Expi293F, Protein G purification, SEC peak area ratio

B1: IgG4 Fc fragment without modification (SEQ ID NO: 102) (other)
chain: ESKYGPPCPPCPAPEFLGGPSVFLFPPKPKDTLMISRTPEVTCVVVDVSQEDPEVQFNWYVDGVEVHNAKTKPREEQFNSTYRVVSVLTVLHQDWLNGKEYKCKVSNKGLPSSIEKTISKAKGQPREPQVYTLPPSQEEMTKNQVSLTCLVKGFYPSDIAVEWESNGQPENNYKTTPPVLDSDGSFFLYSRLTVDKSRWQEGNVFSCSVMHEALHNHYTQKSLSLSL
notes: Fc fragment co-expressed with a full-length heavy chain and the light chain; the associating unit is one Fc chain; also called WT-IgG4 Fc fragment
In the case of B1, the “Homo Fc fragment (%)” value is reported as 27.3%.
